Assay results reported in patent EP0845217A1, “Inhibiting undesirable taste in oral compositions” (priority 1996, dated 1998).

Chains of the proteins cited; added tags and fusions are not shown. Lines headed by an entry give the natural chain unless they say otherwise; changes in a name come on top. Residues count along the entry.
UniProt P15273: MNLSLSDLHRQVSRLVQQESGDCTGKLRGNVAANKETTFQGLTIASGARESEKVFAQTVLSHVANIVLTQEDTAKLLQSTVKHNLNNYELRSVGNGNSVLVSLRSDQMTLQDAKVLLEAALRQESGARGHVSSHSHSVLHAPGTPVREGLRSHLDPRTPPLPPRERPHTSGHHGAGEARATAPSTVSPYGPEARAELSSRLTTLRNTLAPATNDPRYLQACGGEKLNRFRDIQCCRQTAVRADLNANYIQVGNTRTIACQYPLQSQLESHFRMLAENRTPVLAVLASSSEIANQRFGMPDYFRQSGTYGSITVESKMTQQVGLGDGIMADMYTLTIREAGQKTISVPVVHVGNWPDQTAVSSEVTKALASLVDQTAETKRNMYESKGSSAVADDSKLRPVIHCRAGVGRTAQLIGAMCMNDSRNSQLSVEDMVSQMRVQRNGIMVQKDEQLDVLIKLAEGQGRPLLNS
UniProt P19111, 20-506: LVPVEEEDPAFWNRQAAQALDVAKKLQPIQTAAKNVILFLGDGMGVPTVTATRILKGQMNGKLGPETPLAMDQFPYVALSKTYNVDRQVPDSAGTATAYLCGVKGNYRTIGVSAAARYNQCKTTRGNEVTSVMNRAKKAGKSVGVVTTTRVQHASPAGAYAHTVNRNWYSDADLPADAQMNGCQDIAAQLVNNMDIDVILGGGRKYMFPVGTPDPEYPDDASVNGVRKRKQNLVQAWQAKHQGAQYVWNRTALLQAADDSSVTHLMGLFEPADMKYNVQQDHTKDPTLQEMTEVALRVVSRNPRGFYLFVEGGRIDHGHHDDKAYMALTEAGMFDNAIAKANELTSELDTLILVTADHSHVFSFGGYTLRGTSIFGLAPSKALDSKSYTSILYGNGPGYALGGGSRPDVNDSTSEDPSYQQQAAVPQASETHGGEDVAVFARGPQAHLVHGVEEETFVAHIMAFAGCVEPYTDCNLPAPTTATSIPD

Key:
[1] = molecular target: protein tyrosine phosphatase (Yersinia enterocolitica, UniProt P15273); assay: Protein tyrosine phosphatase enzyme kinetics with PNPP substrate; assay type: biochemical; details: 37°C, pH 7.5
Experimental: Protein tyrosine phosphatase, a tyrosine phosphatase, is shown to be inhibited by VMP, EMP, and ThMP. Enzyme kinetics are done using purified protein tyrosine phosphatase from the bacteria, Yersinia enterocolitica, recombinant form, with PNPP as the substrate. The enzyme kinetics experiments are done similarly to the kinetics experiments for alkaline phosphatase and acid phosphatase described above.
Specifically, the enzyme reaction is done in a volume of 200 ul containing 120 ng of tyrosine phosphatase, 0.2-1.0 mM PNPP, and 0-0.5 mM VMP, EMP or ThMP. Each final reaction mixture contains 20 mM Tris, 0.1 % beta-mercaptoethanol, and 0.1% bovine serum albumin at pH 7.5. The ionic strength of each reaction mixture is the same and is balanced by the addition of the appropriate amount of NaCl. Activity of this enzyme is extremely sensitive to ionic strength. Each reaction is begun with the addition of tyrosine phosphatase. The formation of PNP is monitored by measuring the OD405/490 at 30 second intervals over a 30 minute period. The enzyme velocity is linear over this time period under these conditions. The Ki values are calculated as described above for alkaline phosphatase (Table 2).

alkaline phosphatase = alkaline phosphatase (Bos taurus, UniProt P19111); assay type: biochemical, bovine; details: PNPP substrate; pH 9.8; room temperature
Experimental: Enzyme kinetics experiments are done using purified alkaline phosphatase from bovine intestine and the substrate para-nitrophenyl phosphate (PNPP). The formation of colored para-nitrophenol (PNP) from colorless PNPP is followed by measuring the color formation in the presence of inhibitor at several concentrations.
Specifically, enzyme reactions are done in a volume of 200 ul containing 12.5 mU/ml alkaline phosphatase, PNPP at concentrations between 0.5-200 mM, and an inhibitor at concentrations between 0-100 mM. […] Phosphoserine is the natural substrate for this enzyme. The final buffer solution is 0.9 M diethanolamine and 0.5 mM […], pH 9.8, mixed 3:1 (v:v) with water. Reactions are done in a 96-well microtiter plate. The enzyme reaction is initiated by the addition of the enzyme. Each reaction mixture is done in triplicate. The enzyme reaction is monitored by measuring the optical density (OD) at 405 nm, with a reference OD of 490 nm. The OD's are read every 30 seconds over a 15 minute period at room temperature. PNP concentration is determined based on a standard curve correlating OD405/490 vs. PNP concentration. […] The data is then transformed and plotted as the Kmapp / Vmax. vs. inhibitor concentration. From these plots the dissociation constant of the enzyme-inhibitor complex, Ki, is determined. The x-intercept on this plot equals (-Ki). […]

vanillylmonophosphate [VMP]
Ki [1]: 1040 µM | Ki (alkaline phosphatase): 3990 µM
